Assay results as given in US7094593B1, “Method for improving the function of heterologous G protein-coupled receptors” (priority 1998, dated 2006).

The chains behind the UniProt entries cited, without tags or fusion partners.
UniProt P08483, whole entry: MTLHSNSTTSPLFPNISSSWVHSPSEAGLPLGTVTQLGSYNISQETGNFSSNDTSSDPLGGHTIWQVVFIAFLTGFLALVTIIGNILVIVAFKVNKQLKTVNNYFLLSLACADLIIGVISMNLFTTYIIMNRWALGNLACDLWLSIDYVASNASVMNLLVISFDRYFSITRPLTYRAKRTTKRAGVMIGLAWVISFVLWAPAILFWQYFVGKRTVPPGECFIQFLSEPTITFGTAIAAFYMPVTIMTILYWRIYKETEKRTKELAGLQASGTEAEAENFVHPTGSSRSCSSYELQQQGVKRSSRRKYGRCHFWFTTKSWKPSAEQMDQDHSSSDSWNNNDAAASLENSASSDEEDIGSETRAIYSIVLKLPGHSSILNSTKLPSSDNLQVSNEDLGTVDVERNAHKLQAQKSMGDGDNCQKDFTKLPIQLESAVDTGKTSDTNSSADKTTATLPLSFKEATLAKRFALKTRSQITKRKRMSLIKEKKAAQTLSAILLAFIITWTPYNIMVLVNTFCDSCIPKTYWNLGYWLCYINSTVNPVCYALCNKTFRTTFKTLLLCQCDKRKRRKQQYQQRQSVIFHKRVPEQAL

Biological target: wild type rat M3 MAR (Rattus norvegicus, UniProt P08483)
Conditions: yeast cells containing wild type M3 MAR

C[N+](C)(C)CCOC(N)=O [carbachol]
agonist-dependent yeast cell growth: lack of agonist-dependent yeast cell growth
